Reference: patent US20160333020A1, “7-BETA ANALOGS OF ORVINOLS” (published 2016)

Columns and labels:
[1] = biological target: T1, μ-opioid receptor (Homo sapiens, UniProt P35372); assay: [35S]GTPγS functional assay, μ-opioid receptor, HEK-293 cells; conditions: for μ Emax (%): maximal effect relative to DAMGO, Table 1; for EC50: read-out: μ EC50 (μM), μ GTP EC50, Table 1
[2] = biological target: κ-opioid receptor (Homo sapiens, UniProt P41145); assay: [35S]GTPγS functional assay, κ-opioid receptor, U-2 OS cells
[3] = biological target: T1, μ-opioid receptor; assay: [35S]GTPγS functional assay, μ-opioid receptor, U-2 OS cells

SMILES	μ Emax (%) [1] [%]	EC50 [1] [µM]	κ Emax (%) ([2]; maximal effect relative to U69,593, Table 2)	EC50 ([2]; read-out: κ EC50, κ GTP EC50, Table 2) [nM]	μ Emax (%) ([3]; maximal effect relative to DAMGO, Table 2)	EC50 ([3]; read-out: μ EC50, μ GTP EC50, Table 2) [µM]
CO[C@]12CC[C@@]3(C[C@H]1COCc1ccccc1)[C@H]1Cc4ccc(O)c5c4[C@@]3(CCN1CC1CC1)[C@H]2O5	97.0 ± 5.44	> 20	–	–	–	–
COc1ccc2c3c1O[C@H]1[C@@]4(OC)CC[C@@]5(C[C@H]4COCc4cc6ccccc6s4)[C@@H](C2)N(CC2CC2)CC[C@]315	1.00	> 20	–	–	–	–
CO[C@]12CC[C@@]3(C[C@H]1COCc1cc4ccccc4s1)[C@H]1Cc4ccc(O)c5c4[C@@]3(CCN1CC1CC1)[C@H]2O5	1.00	> 20	117.3 ± 0.88	0.048	21.7 ± 2.03	3.93
